# Where “and” joins values, the source holds several entries; their conditions need not be identical. Equal entries are not always repeated. The entries are a selection whose mix differs from that of the whole data set. Some of these compounds have results that are not shown, active ones among them. Calls of active or inactive are those of the source. Calls follow the shape of the dose curve; as a rule, active = well fitted inhibition curve with a large enough effect; inconclusive = small, poorly fitted or top-dose-only effect; inactive = no such curve, though single readings can be large or run the other way.
# Biological target: Phosphoglycerate kinase, glycosomal (Trypanosoma brucei brucei) (UniProt P07378)
# Test: qHTS Assay to Find Inhibitors of Phosphoglycerate Kinase; also: nearly all actives have a fitted effect of over 60% in size
# Settings: PGK/GAPDH coupled, Kinase-Glo luminescence, 60 min; activity change, negative = inhibition: at 57.5 µM (top of the series)
# Excerpt: Several species of the Trypanosomatidae family of parasitic protozoans cause a spectrum of diseases throughout the tropical and subtropical world. Sleeping sickness, caused by two subspecies of Trypanosoma brucei, is endemic to areas of sub-Saharan Africa, while Chagas disease, a manifestation of Trypanosoma cruzi infection, is prevalent throughout Central and South America. In addition, many species of Leishmania are responsible for a range of cutaneous and visceral diseases, causing ulcers, destructive lesions and kalaazar, a lethal infection of the viscera. Collectively, these organisms infect 30 million people worldwide (~500 million live in endemic areas), and account for ~130,000 deaths annually. Given their debilitating and prevalent nature, trypanosomatid parasites impose a heavy medical, economic and social burden on entire populations, primarily in the developing world. The problem is further exacerbated by the fact that existing treatments have progressed little in the past 50 years, and current drugs show high toxicity and poor efficacy. […] Blood-stream stages of T. brucei are entirely dependent on glycolysis as a source of ATP, and the tricarboxylic acid cycle and oxidative phosphorylation are both repressed. Glycolysis in axenically cultured T. cruzi, representing the intracellular pathogenic stage, is also essential for these parasites. […] Previous studies have shown that the glycolytic enzyme, phosphoglycerate kinase (PGK), is a viable target for drugs to kill these parasites. […] NIH Molecular Libraries Probe Production Network [MLPCN] NIH Chemical Genomics Center [NCGC] MLPCN Grant: R03 MH093212 PI Name: Malcolm Walkinshaw, University of Edinburgh
# 3ul of substrate/PGK buffer (columns 1,2,5-48) are dispensed into Greiner white solid bottom 1536-well assay plates; columns 3-4 receive only TEA buffer as 0x PGK controls. Compounds are then transferred via Kalypsys pin tool equipped with 1536-pin array (10nl slotted pins, V&P Scientific, San Diego, CA). Following addition of compound, 1ul of GAPDH (100nM final concentration, all columns) is added to initiate the reaction (this upstream coupling enzyme is necessary for in-well production of PGK substrate, 1,3-bisphosphoglycerate (1,3-BPG), which is unstable and not commercially available). The plates are then incubated at room temperature for 60 minutes. Kinase-Glo Plus reagent is added (2ul) and plates incubated for 10 minutes, before being transferred to a ViewLux high-throughput CCD imager (PerkinElmer) wherein single end-point measurements of luminescence are acquired using a clear filter. All reagents are diluted in an assay buffer consisting of 100mM TEA (pH 7.6), 5mM MgCl2 and 0.01% Tween-20.
row,SMILES,"activity change, negative = inhibition"
1,COc1ccc(Br)c(C(=O)NCC2(N3CCCCC3)CCCCC2)c1,inactive: -0.958%
2,COc1cc(C(=O)NCC2(N(C)C)CCCCC2)cc(OC)c1OC,inactive: -4.95%
3,Cc1cccc(C(=O)NCC2(N(C)C)CCCCC2)c1,inactive: 7%
4,C=C(C)C#CC(O)(C(=O)OC1CCN(C)CC1)c1ccccc1 (stereo not given),inactive: -6.76%
5,CN(C)c1cccc(C(=O)NCC2(N(C)C)CCCCC2)c1,inactive: -8.33%
6,O=C(OCCN1CCCC1)C(O)(c1ccccc1)c1ccccc1,inactive: -4.53%
7,CC(C)Oc1ccc(C(=O)NCC2(N(C)C)CCCCC2)cc1,inactive: 5.89% and inactive: 5.65%
8,O=C(OC1CN2CCC1CC2)C(CO)(c1ccccc1)c1ccccc1 (stereo not given),inactive: 1.39%
9,COc1cccc(C(=O)NCC2(N3CCOCC3)CCCCC2)c1,inactive: -18.9%
10,CC(C)COc1ccc(C(=O)NCC2(N(C)C)CCCCC2)cc1,inactive
11,COc1ccc(C(=O)NCC2(N(C)C)CCCCC2)cc1Cl,inactive: 2.44%
12,COc1ccc(Cl)cc1C(=O)NCC1(N(C)C)CCCCC1,inactive: -6.09%
13,COc1cccc(C(=O)NCC2(N3CCCCC3)CCCCC2)c1,inactive: -1.18%
14,O=C(NCC1(N2CCCCC2)CCCCC1)c1cccc(Cl)c1,inactive: 3.9%
15,CN(C)C1(CNC(=O)c2ccc(Br)cc2)CCCCC1,inactive: -2.44%
16,O=C(NCC1(N2CCCCC2)CCCCC1)c1cc(F)c(F)cc1Cl,inactive: -6.29%
17,C=CCN1CCN(CCOC(=O)C(O)(c2ccccc2)c2ccccc2)CC1,inactive: -8.73%
18,O=C(NCC1(N2CCCCC2)CCCCC1)c1cccc(Br)c1,inactive: -5.33%

row,SMILES,"activity change, negative = inhibition"
1,CCN1CCCC(OC(=O)C2(O)c3ccccc3C=Cc3ccccc32)C1 (stereo not given),inactive: -0.719%
2,Cc1cc(C(=O)NCC2(N3CCCCC3)CCCCC2)ccc1[N+](=O)[O-],inactive
3,CCOc1cccc(C(=O)NCC2(N(C)C)CCCCC2)c1,inactive: -3.01%
4,COc1ccc(C(=O)NCC2(N(C)C)CCCCC2)cc1,inactive: -1.96%
5,CN(C)c1ccc(C(=O)NCC2(N(C)C)CCCCC2)cc1,inactive: -3.12%
6,CN(C)C1CCCC1OC(=O)C(O)(c1ccccc1)c1ccccc1 (stereo not given),inactive: -4.58%
7,Cc1ccccc1C(=O)NCC1(N2CCCCC2)CCCCC1,inactive
8,CN(C)C1(CNC(=O)c2ccccc2[N+](=O)[O-])CCCCC1,inactive: 1.37%
9,CCCCOc1ccccc1C(=O)NCC1(N(C)C)CCCCC1,inactive: -4.97%
10,CC(C)N1C(=O)CC2(CCN(CCOC(=O)C(O)(c3ccccc3)c3ccccc3)CC2)C1=O,inactive: 4.99%
11,COc1cc(SC)ccc1C(=O)NCC1(N(C)C)CCCCC1,inactive: 1.52%
12,CN(C)C1(CNC(=O)c2cccc(Cl)c2)CCCCC1,inactive: 1.24%
13,CCN(CC)CC(C)C(C)OC(=O)C(O)(c1ccccc1)c1ccccc1 (stereo not given),inactive: -9.56%
14,CN(C)C1(CNC(=O)c2ccccc2F)CCCCC1,inactive: -0.802%
15,Cc1ccc(C(=O)NCC2(N3CCCCC3)CCCCC2)cc1,inactive: -5.92%
16,O=C(NCC1(N2CCCCC2)CCCCC1)c1cc([N+](=O)[O-])ccc1Cl,inactive
17,CN1[C@@H]2CC[C@H]1CC(OC(=O)C(O)(c1ccccc1)c1ccccc1)C2 (stereo not given in full),inactive
